## scFv variants of Ab-14 (light chain) against a SARS-CoV-2 spike peptide

The target is the same throughout: PDVDLGDISGINAS, from the HR2 region of SARS-CoV-2 spike.

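The parent was found by panning a naive human phage display library on the peptide. Designed CDR sequences, proposed from the first random library and measured here. Group labels follow the data file (Ctrl: baseline library sampled from a position-specific scoring matrix, with some repeated check sequences; En: ensemble of fine-tuned language models; GP: Gaussian process model; HC: hill climbing; Gen: genetic algorithm; Gibbs: Gibbs sampling; a sequence that several methods proposed may carry one label only). Affinity was read by AlphaSeq, a pooled yeast mating assay with surface-displayed partners. Binding brings cells together so that they mate, and sequencing counts the barcode pairs among the diploids. Each replicate has its own calibration line, from reference interactions of the BCL2 family. The assay was run in six technical replicates.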

Parent scFv Ab-14: VH joined to VL by the linker GGGGSGGGGSGGGGS. Changes lie in the light chain CDRs alone.
VH: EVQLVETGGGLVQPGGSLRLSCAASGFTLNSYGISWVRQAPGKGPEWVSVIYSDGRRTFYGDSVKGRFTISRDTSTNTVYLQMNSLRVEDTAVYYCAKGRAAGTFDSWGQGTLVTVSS
VL: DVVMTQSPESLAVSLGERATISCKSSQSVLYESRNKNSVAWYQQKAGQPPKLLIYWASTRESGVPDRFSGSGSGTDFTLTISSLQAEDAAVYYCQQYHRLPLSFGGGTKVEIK

Variants are written as CDR1, CDR2 and CDR3 of the light chain (limits as in the source). Parent: KSSQSVLYESRNKNSVA, WASTRES, QQYHRLPLS.
Each Kd is an estimate from the mating assay, the geometric mean of the replicates in which the pair was seen; lower is stronger.
"nd" means that the variant was in the library but no mating with the target was seen in any replicate; the authors take this as a sign of poor binding, and no number exists.
Values of this round are not directly comparable with the first-round values of the same sequences.
The authors' rule: three or more of the six replicates give a measured affinity, fewer mean a poor binder.
Empty control strains, which show no peptide, gave a signal in 4% of pairings with all light chain designs; the median was 430 nM and 95% of these signals were weaker than 38 nM. No background was subtracted. For each scFv, signals with the empty controls are counted beside the result.

CDR-L1 | CDR-L2 | CDR-L3 | group | Kd | detected | signal with controls
KSSDSYLYESRNKNSVA | AASTRES | QTYHELPLS | Ctrl | 41 nM | 6 of 6 | 0 of 18
KSSLSGLYESRMKNSVA | EASTRES | QQYHRLPLS | GP_HC | 1.2 nM | 6 of 6 | 0 of 18
FLEQSTLYESRNKNSVA | NASTRCS | QQYHRLPLS | GP_Gibbs | 530 pM | 6 of 6 | 0 of 18
RISQSVLMESRNKNSVA | NASTHES | QQYHRLPLS | Ctrl | 770 pM | 6 of 6 | 1 of 18
KLQFSWWYESRNKNAVA | SASQREV | QQYHRLPLS | GP_Gibbs | 10 nM | 6 of 6 | 1 of 18
KVPMSHLYESRNMNSVA | NASERES | QQYHRLPLS | GP_Gibbs | 1.4 nM | 6 of 6 | 0 of 18
KLRQVTGYESYLKNSVA | QTSTRAS | QDYHRLPLS | En_HC | 11 nM | 6 of 6 | 0 of 18
KLYPSYLYESRNKNSVA | QASTRES | QQYHRLPLS | GP_HC | 780 pM | 6 of 6 | 1 of 18
RLSTEHTGYGEMMNNIA | QGSTKQF | QQYDRLPLH | En_Gibbs | 7.5 nM | 6 of 6 | 0 of 18
KIYQVGLGSQKVDRNIA | ETSTRCT | QSYQRLPLS | En_Gibbs | 2.9 nM | 6 of 6 | 4 of 18
NVGQQMDGESRNKNSVA | HQSTRED | QHYHRLPLS | En_HC | 3.3 nM | 6 of 6 | 0 of 18
TIQQLMSLFSQTINNVA | EVSLREK | QQYDRLPLA | En_Gen | 79 nM | 1 of 6 | 0 of 18
HMSMITLGGMRARNSVA | QMTTREN | QQYDRLPLA | En_Gen | 7.2 nM | 6 of 6 | 0 of 18
MISQVMNTLTRHGNNVA | DLENRED | QQYFRLPLS | En_Gen | 22 nM | 6 of 6 | 0 of 18
KLQQSELYESRNKNSVA | NASTRMS | QQYHRLPLS | GP_Gen | 500 pM | 6 of 6 | 0 of 18
KVSEFMRGMMRQKDSIA | DNETRQS | QQYDHLPLS | En_Gen | 13 nM | 6 of 6 | 0 of 18
KSMFSVPGEDRNKNSVA | EASTRCS | QQYHRLPLS | GP_Gibbs | 750 pM | 6 of 6 | 0 of 18
KVSEFTRGLMSRQDSIA | DNVTRNS | QQYDRLPLS | En_Gen | 150 nM | 4 of 6 | 1 of 18
KLSQSWLYQSRNSNAVA | EASQREQ | QDYHRLPLS | GP_Gibbs | 1.1 nM | 6 of 6 | 1 of 18
KVSQSFLYESRWKNSVA | GASQRES | QQYHRLPLS | GP_HC | 6.9 nM | 6 of 6 | 1 of 18
MLSQMWALGMKASNSVA | QASMRFN | QQYHRLPLM | En_Gen | nd | 0 of 6 | 0 of 18
KLQQSVLYESRNKNAVA | EASTRES | QQYHRLPLS | GP_Gen | 520 pM | 6 of 6 | 0 of 18
KLSQSGGYEQRNSNSVA | EASTRED | QQYHRLPLS | GP_Gibbs | 440 pM | 6 of 6 | 1 of 18
KISQSVLYESRNKNSVA | GASTRER | QQYHRLPLS | Ctrl | 900 pM | 6 of 6 | 1 of 18
KSSQSVLYESRNFNSVA | HASTRED | QQYHRLPLS | GP_HC | 2.0 nM | 6 of 6 | 2 of 18

Continued, with the values leading:

Kd | detected | signal with controls | CDR-L1 | CDR-L2 | CDR-L3 | group
12 nM | 6 of 6 | 2 of 18 | NYENISEPMGRYDQNIA | NVSLREH | QQYFMLPLS | En_Gibbs
nd | 0 of 6 | 0 of 18 | KSSMSVLYESRNKNSVA | MASTRES | QQYHYLPES | Ctrl
3.2 nM | 6 of 6 | 0 of 18 | HLSQSGLYGMRNKNSVA | QASQRLQ | QQYHRLPLS | GP_Gibbs
1.3 nM | 6 of 6 | 1 of 18 | KLQNSFLYGSRQSNNVA | EASQRES | QQYHRLPLS | GP_Gibbs
9.9 nM | 6 of 6 | 2 of 18 | MLSDLVKMGSRNTGSVA | DNSTRGS | QQYDRLPLS | En_HC
160 nM | 6 of 6 | 2 of 18 | MISDTGLHDSRMYNSVA | NNSTREA | QQYHRLPLS | En_HC
27 nM | 6 of 6 | 1 of 18 | TIGAQLMYGMRNRSNVA | EVSQRLN | QQYDRLPLD | En_Gen
7.0 nM | 6 of 6 | 1 of 18 | KSSQSVVYESRNKNSVA | SASTRES | QQYHRLPLI | Ctrl
710 pM | 6 of 6 | 0 of 18 | KSYQSVLKESLNANSVA | DASTRES | QQYHRLPLV | Ctrl
140 nM | 2 of 6 | 0 of 18 | KSSQSVLTESRNLNSVA | WASTQES | QQYHRLPLS | Ctrl
280 pM | 6 of 6 | 1 of 18 | KISQSVGYESRNKNSVA | DASTRES | QQYHRLPLS | GP_Gen
1.9 nM | 6 of 6 | 0 of 18 | KSSQSVLMNSRNKNSVA | SASTRES | QQYHRLPLS | Ctrl
920 pM | 6 of 6 | 1 of 18 | KLSQSVLYESRNKNSVA | NASTRRS | QQYHRLPLS | GP_Gen
2.2 nM | 6 of 6 | 2 of 18 | KLSMSELPESRNKNSVA | WASTREP | QQYHRLPLS | GP_Gibbs
3.0 nM | 6 of 6 | 0 of 18 | KVLQSVDYEGRNKNSVA | HASTRED | QQYHRLPLS | GP_HC
1.1 nM | 6 of 6 | 0 of 18 | KVEMSQPYESRNKNSVA | HASVRES | QQYHRLPLS | GP_Gibbs
6.5 nM | 6 of 6 | 0 of 18 | NIYQAMHTLMQARNNVA | DVTNRNQ | QQYFRLPLS | En_Gen
1.1 nM | 6 of 6 | 1 of 18 | KLSPSWLGEERNDNSVA | NASTRLS | QQYHRLPLS | GP_Gibbs
650 pM | 6 of 6 | 2 of 18 | KMSQSVLDESRNKNSVA | EASTRES | QQYSRLPLS | Ctrl
860 pM | 6 of 6 | 0 of 18 | WLSMSVMLESRNKNSVA | SASTREL | QQYHRLPLS | GP_Gibbs
120 nM | 3 of 6 | 0 of 18 | KSSQSVLYEHRNHNSVA | WASTRES | QQYHRSPLS | Ctrl
690 pM | 6 of 6 | 2 of 18 | KLSQLQLYESRNKNSVA | NASTRES | QQYHRLPLS | GP_Gen
58 nM | 5 of 6 | 1 of 18 | KVPQSVLYESSNKNSVA | WASTRES | QQYWRFPLS | Ctrl
4.4 nM | 6 of 6 | 0 of 18 | KISMVMENQLKNRNSVA | ELVTRVN | QQYARLPLS | En_Gen
nd | 0 of 6 | 0 of 18 | KSSQSVGYESRNKNSVA | GASTRES | QQYHRLHGS | Ctrl

The opening 3 entries, copied out:

CDR-L1 | CDR-L2 | CDR-L3 | group | Kd | detected | signal with controls
KSSDSYLYESRNKNSVA | AASTRES | QTYHELPLS | Ctrl | 41 nM | 6 of 6 | 0 of 18
KSSLSGLYESRMKNSVA | EASTRES | QQYHRLPLS | GP_HC | 1.2 nM | 6 of 6 | 0 of 18
FLEQSTLYESRNKNSVA | NASTRCS | QQYHRLPLS | GP_Gibbs | 530 pM | 6 of 6 | 0 of 18

Source: Li et al. 2023 (doi:10.1038/s41467-023-39022-2), MIT Lincoln Laboratory and A-Alpha Bio; data file from the FLAb repository.